Measured values reported in patent US20210145989A1, “COMPOSITIONS AND RELATED METHODS FOR BLOCKING OFF-TARGET LOCALIZATION OF MANNOSYLATED DEXTRANS AND OTHER CD206 LIGANDS” (Navidea Biopharmaceuticals, Inc., priority 2019, published 2021).

Tested on: CD206
Assay: Autoradiography of 99mTc-tilmanocept organ localization after IV injection in healthy rats
Format: in vivo
Conditions: male Sprague Dawley rat, IV tail vein, 25 μg labeled with 5 mCi 99mTc, one hour after injection, autoradiogram
Method: Because of their high affinity for CD206, mannosylated dextrans generally and 99mTc-tilmanocept specifically have been investigated as either imaging agents or drug delivery vehicles for macrophage involved illnesses atherosclerosis, cancer and rheumatoid arthritis (unpublished results). Diagnostic imaging studies were performed using Lymphoseek (99mTc-tilmanocept) that was administered by intravenous (IV) injection rather than the peritumoral or intradermal injection route of administration used for the SLN related indications. […] The Sprague Dawley rats in this study were healthy, so there were no disease lesions to which 99mTc-tilmanocept could have localized.

Substance: dextran 3-[(2-aminoethyl)thio]propyl 17-carboxy-10,13,16-tris(carboxymethyl)-8-oxo-4-thia-7,10,13,16-tetraazaheptadec-1-yl 3-[[2-[[1-imino-2-(D-mannopyranosylthio)ethyl]amino]ethyl]thio]propyl ether complexes [99mTc-tilmanocept]
- localization of radioactivity to the liver and kidneys: greatest localization; also recorded: intense localization

Entries after “also recorded” stand apart in the source; their conditions may differ.
